The record followed here is ChEMBL document CHEMBL1770097, “Non-competitive and selective dipeptidyl peptidase IV inhibitors with phenethylphenylphthalimide skeleton derived from thalidomide-related α-glucosidase inhibitors and liver X receptor antagonists” (Bioorg Med Chem Lett, 2011).

Sequences of proteins named here, by UniProt entry; tags and fusion partners are left off.
UniProt P27487, whole entry, looked up: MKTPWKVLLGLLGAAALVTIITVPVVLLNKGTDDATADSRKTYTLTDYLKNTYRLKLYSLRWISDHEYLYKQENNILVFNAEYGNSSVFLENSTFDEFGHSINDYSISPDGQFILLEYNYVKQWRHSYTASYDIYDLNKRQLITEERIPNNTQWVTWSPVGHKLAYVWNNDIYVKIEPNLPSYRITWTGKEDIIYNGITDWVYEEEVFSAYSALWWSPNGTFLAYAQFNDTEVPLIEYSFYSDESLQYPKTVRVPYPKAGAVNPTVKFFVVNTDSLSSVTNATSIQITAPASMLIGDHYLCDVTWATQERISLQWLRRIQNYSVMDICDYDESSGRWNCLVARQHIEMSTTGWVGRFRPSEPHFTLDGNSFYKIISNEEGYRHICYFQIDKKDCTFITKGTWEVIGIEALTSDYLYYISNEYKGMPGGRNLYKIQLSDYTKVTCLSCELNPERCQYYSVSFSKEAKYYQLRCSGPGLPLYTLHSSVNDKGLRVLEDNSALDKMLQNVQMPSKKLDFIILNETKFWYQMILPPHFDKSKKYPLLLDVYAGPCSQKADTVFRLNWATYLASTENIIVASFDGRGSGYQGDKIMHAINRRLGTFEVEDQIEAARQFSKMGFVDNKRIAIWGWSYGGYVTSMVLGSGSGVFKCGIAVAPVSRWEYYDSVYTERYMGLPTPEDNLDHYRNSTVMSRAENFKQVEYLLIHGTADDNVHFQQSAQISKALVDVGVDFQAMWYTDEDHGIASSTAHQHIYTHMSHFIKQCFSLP

The assay addresses Dipeptidyl peptidase 4 (Homo sapiens, UniProt P27487). The assay can be described thus: Inhibition of DPP4 at 10 uM assessed as […] release after 1 hr relative to control.

One may read the inhibition as the drop in the measured response relative to a control, in per cent. Consider `CC[C@H](C)[C@H](N)C(=O)N1CCC[C@H]1C(=O)N[C@H](C(=O)O)[C@@H](C)CC`, for which the inhibition amounted to 14%.
